Experimental data reported in patent US20200199530A1, “METHODS OF DIFFERENTIATING STEM CELL-DERIVED ECTODERMAL LINEAGE PRECURSORS” (MEMORIAL SLOAN-KETTERING CANCER CENTER, priority 2017, published 2020).
Entries after “also recorded” stand apart in the source; their conditions may differ.

System: hPSC-derived pituitary-lineage cells
Test: Dorsal-ventral patterning of pituitary cells with FGF8 and BMP2
Assay type: cell-based, human
Method: For standard (unless mentioned otherwise in the text) pituitary maturation, medium on day 30 was changed to “E6 only” for additional 30 days. For patterning experiments (indicated in the text) E6 medium was supplemented with either high concentrations of FGF8 (100 ng/ml, dorsalize), high concentrations of BMP2 (20 ng/ml, ventralize) or intermediate concentrations of both (FGF8 50 ng/ml, BMP2 10 ng/ml).
Total RNA was extracted from at least 3 independent experiments using the TRIzol (Fisher Scientific) reagent in combination with Phase-lock tubes (5Prime) according to the manufactures protocol. 1 μg of total RNA was reverse transcribed into cDNA using iScript (BioRad). For quantitative RT PCR the present example used the SSoFast EvaGreen Mix (BioRad) in combination with QuantiTect primer assays (Qiagen) on a BioRad CFX96 Thermal Cycler. All reactions were run according to the manufacturer's protocol. Results are calculated using the ΔΔCt method (Livak and Schmittgen, 2001).
For single cell PCR analysis cells were detached using Accutase. After filtering through a 40 μm cell strainer DAPI negative cells were sorted on a BDFACS Aria III machine, essentially cleaning up the cell preparation of debris and dead cells. Sorted cell suspension was adjusted to a concentration of 400 000 cells/ml. Single cells were captured using the Fluidigm C1 system according to the manufactures manual. Capture rate of for each C1 chip was confirmed microscopically using a standard tissue culture bright filed microscope. Capture rates were as follows: day 30: 91% (87/96) day 60: 94% (90/96) day 60 FGF8: 93% (89/96) day 60 FGF8/BMP2: 89% (85/96) day 60 BMP2: 93% (89/96). Cells were lysed, RNA was extracted and transcribed into cDNA using the C1 in combination with wet-lab tested Fluidigm DELTAgene assays (FIG. 27) following the manufactures protocol. Wet-lab tested DELTAgene assays were purchased directly from Fluidigm. The resulting cDNA was diluted 1:5 and subjected to Single cell PCR amplification using the Fluidigm BioMark system in combination with EvaGreen chemistry according to the manufactures manual (“Fast Gene Expression Analysis Using EvaGreen on the BioMark or BioMark HD System”). PCR was run using a Fluidigm 96.96 Dynamic Array. Each primer pair was run in technical duplicates on the chip. Only single cells with consistent amplification results between the technical primer replicates were considered to minimize false positive calls on the expense of increasing the number of false negatives. Overall discrepancy rate was low (>3% per primer pair). Expression data was analyzed using the Fluidigm Real-Time PCR analysis software in combination with the Fluidigm SINGuLAR Analysis Toolset for R (Version 3.0.2 (2013-09-25) “Frisbee Sailing”).
After washing the cells once with PBS, cells were fixed with 4% (v/v) paraformaldehyde for 20 min, washed twice with PBS, permeabilized using 0.1% (v/v) Triton X-100 in PBS, Cells were blocked with 10% (v/v) FCS in PBS for 1-5 h at room temperature. Cells were incubated with primary antibodies diluted in 2% FCS (v/v) in PBS at 4° C. overnight. A list of the primary antibodies used in this study is provided as FIG. 28. […] After an additional 2 washing steps, fluorescence images of the cells were taken using an Olympus IX71 inverted microscope equipped with a Hamamatsu ORCA CCD camera.

[1] = single cell qRT-PCR, day 60, high concentrations

B1: BMP2: activator of BMP signaling, ventralizing agent (protein, UniProt P12643 283-396, looked up)
Bone morphogenetic protein 2: QAKHKQRKRLKSSCKRHPLYVDFSDVGWNDWIVAPPGYHAFYCHGECPFPLADHLNSTNHAIVQTLVNSVNSKIPKACCVPTELSAISMLYLDENEKVVLKNYQDMVVEGCGCR
With B1 the “ventral cell type gene expression (FSHB, LHB)” value (bulk qRT-PCR, day 60, FIG. 20A) was “significantly upregulated; also recorded: induced a more ventral cell identity”, the “hormone expressing cells by immunofluorescence” value (day 60, FIG. 20D/20E) was “FSH was the most abundant cell type” and the “cells expressing POMC” value (day 60, single cell qRT-PCR, high concentrations (FGF8 100 ng/ml, BMP2 20 ng/ml)) was 40%. For the same molecule, the “number of ACTH+ dorsal cell types” value [1] was “decreased” and the “number of ventral cell types expressing FSHB and LHB” value [1] was “increased”.
